US10112926B2 (priority 2014, dated 2018)

Sequences of proteins named here, by UniProt entry; tags and fusion partners are left off. A change or cut given only in a name is not applied to a line headed by its entry.
UniProt P42336, whole entry, looked up: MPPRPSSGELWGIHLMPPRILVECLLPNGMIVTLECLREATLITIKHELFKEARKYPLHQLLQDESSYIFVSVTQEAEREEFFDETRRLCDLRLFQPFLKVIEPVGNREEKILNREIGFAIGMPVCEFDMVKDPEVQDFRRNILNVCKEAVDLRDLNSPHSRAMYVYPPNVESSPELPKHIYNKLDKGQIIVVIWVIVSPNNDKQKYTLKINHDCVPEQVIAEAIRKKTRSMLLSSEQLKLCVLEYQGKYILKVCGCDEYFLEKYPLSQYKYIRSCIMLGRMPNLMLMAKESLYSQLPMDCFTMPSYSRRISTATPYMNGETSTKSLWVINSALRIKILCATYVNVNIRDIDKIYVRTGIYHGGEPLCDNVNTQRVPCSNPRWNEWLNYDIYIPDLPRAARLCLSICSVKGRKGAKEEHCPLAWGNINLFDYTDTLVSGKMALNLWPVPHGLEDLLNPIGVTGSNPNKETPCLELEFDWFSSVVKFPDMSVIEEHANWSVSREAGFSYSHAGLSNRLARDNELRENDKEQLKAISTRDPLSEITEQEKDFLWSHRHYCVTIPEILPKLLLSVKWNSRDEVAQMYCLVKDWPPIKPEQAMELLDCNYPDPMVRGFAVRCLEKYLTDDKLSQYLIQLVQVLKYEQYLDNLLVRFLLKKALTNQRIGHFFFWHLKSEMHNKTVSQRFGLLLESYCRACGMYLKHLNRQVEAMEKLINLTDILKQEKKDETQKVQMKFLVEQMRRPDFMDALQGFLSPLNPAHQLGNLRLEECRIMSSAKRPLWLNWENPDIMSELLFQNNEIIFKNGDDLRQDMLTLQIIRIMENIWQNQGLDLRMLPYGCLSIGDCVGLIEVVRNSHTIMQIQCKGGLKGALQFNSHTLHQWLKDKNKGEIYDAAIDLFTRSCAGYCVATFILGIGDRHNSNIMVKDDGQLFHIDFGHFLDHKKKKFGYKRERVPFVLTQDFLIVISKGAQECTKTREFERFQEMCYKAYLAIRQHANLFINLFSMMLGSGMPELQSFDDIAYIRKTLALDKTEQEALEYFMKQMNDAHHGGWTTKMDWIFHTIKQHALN
UniProt P42338: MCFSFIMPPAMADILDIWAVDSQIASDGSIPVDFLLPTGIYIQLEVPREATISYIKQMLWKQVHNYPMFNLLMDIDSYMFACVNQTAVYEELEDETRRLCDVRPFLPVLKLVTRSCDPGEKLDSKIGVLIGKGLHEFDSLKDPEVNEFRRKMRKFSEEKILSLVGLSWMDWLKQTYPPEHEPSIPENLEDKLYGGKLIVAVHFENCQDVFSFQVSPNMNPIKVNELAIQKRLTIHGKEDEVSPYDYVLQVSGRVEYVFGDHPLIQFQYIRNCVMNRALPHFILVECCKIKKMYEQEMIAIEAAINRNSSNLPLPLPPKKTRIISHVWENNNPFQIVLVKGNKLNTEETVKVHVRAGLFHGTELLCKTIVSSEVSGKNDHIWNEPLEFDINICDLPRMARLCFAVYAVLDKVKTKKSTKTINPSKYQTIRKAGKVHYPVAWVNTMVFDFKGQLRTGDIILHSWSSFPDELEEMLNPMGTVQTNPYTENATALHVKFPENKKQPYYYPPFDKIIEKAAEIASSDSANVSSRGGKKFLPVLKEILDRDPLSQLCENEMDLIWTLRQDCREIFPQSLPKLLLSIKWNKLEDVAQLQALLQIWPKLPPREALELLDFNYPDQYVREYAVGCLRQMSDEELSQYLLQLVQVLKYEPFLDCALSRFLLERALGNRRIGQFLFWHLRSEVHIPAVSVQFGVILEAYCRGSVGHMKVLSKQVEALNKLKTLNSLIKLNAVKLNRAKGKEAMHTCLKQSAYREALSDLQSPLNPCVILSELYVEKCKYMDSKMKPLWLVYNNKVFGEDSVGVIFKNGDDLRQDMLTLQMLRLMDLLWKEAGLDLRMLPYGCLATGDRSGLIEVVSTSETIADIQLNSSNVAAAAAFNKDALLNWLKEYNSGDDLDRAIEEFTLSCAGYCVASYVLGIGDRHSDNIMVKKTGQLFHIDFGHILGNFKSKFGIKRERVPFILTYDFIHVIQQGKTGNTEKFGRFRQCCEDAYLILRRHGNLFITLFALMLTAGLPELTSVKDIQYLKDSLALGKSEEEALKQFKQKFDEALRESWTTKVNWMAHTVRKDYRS

How the values were obtained:
[1] = biological target: PI 3-kinase alpha (Rat-1 pBABEpuro Myr-HA-hp110 alpha cells) (Homo sapiens (Human), UniProt P42336); details: read-out: Assay H PI3Kα IC50
[2] = biological target: PI 3-kinase beta (Rat-1 pBABEpuro Myr-HA-hp110 beta cells) (Homo sapiens (Human), UniProt P42338); details: read-out: Assay I PI3Kβ IC50

cis-3-(6-amino-5-(2-methylthiazol-5-yl)pyridin-3-yl)-N-(3-hydroxycyclobutyl)methyl)-4-methylbenzenesulfonamide [Example 83a]
IC50 [1]: 5.1 µM
IC50 [2]: 7.52 µM
